In general, pEC50 refers to the EC50 on a negative log10 scale, so that one unit is a factor of ten.

This is an account of results in patent US20180371021A1, “PEPTIDOMIMETIC MACROCYCLES AND USES THEREOF” (Aileron Therapeutics, Inc., priority 2017, published 2018).

pEC50: −log10 of the molar value.

This assay has as its system SJSA-1 cells. The assay is described as follows: Cell viability assay (MTT), SJSA-1. The class given is cell-based. Conditions: read-out: SJSA-1 EC50 (72 h).

With `CC(=O)N[C@@H](CC(C)C)C(=O)N[C@H](C(=O)N[C@@H](Cc1ccccc1)C(=O)N[C@]1(C)CCCCCCC=CCCC[C@]2(C)NC(=O)[C@H](CC(C)C)NC(=O)[C@](C)(CCCC=CCCC[C@@](C)(C(=O)N[C@@H](C)C(N)=O)NC(=O)[C@H](CO)NC2=O)NC(=O)[C@H](C)NC(=O)[C@H](Cc2c[nH]c3ccccc23)NC(=O)[C@H](Cc2ccc(O)cc2)NC(=O)[C@H](C)NC1=O)[C@@H](C)O`, the pEC50 is 4.82 to 5.30.
